Laboratory results reported in patent US20210040485A1, “Elimination or Neutralization of Endogenous High Molecular Weight FGF-2 Increases Cardiac Resistance to Doxorubicin-Induced Damage” (University of Manitoba, priority 2018, published 2021).

Columns and labels:
[1] = tested on: FGF2(WT), FGF2(−), FGF2(Hi), FGF2(Lo) mice; experiment: In vivo model for acute Doxorubicin effects: echocardiography (FS, EF, LVEDD, LVESD, PWT, HR) and heart weight/body weight; conditions: day 10 post-Dox, mean ± SD
[2] = tested on: FGF2(WT), FGF2(−), FGF2(Hi), FGF2(Lo) mice; experiment: In vivo model for acute Doxorubicin effects: mortality and body weight; design: species or system mouse; conditions: male FGF2(−) mice, 5-6 days post Dox
Description: In vivo model for acute Doxorubicin effects.
In vivo model for acute cardiotoxic effects. […] Hearts were then collected for biochemical analyses.

[3] = tested on: FGF2(WT), FGF2(−), FGF2(Hi), FGF2(Lo) mice; conditions: mouse, in vivo
[4] = tested on: neonatal rat ventricular cardiomyocytes co-cultured with MEFs; experiment: Mitochondrial permeability transition pore (Calcein-AM/Cobalt chloride) assay in MEF-cardiomyocyte co-cultures; type: cell-based; conditions: co-cultures with FGF2(Lo)-MEFs compared to co-cultures with the other MEFs
Method: MEF-Cardiomyocyte co-cultures. Cardiomyocytes were plated at a density of 5×10^4 cells/cm^2 on collagen (Corning, #354236) coated glass coverslips in the presence of 20% fetal bovine serum (FBS) in Hams F-10 culture medium; 24 hours later the media was changed and MEFS from FGF2(WT), FGF2(−), FGF2(Hi), and FGF2(Lo) strains (2×10^4/cm^2) were added to the cultures in low-serum medium (0.5% FBS, 1% insulin, 1% transferrin/selenium, and 1% ascorbic acid) in Dulbecco's modified Eagle's medium (DMEM). After 48 hours, co-cultures were incubated with low serum medium containing 0.5 μM of Dox or saline. Conditioned media were collected 24 h later, and stored at −80° C. Cells attached on coverslips were used for the Calcein-AM/Cobalt chloride mPTP assay.
Primary mouse embryonic fibroblasts (MEFs)-r-cardiomyocyte co-cultures. MEFs were isolated as described (30). […]
Mitochondrial permeability transition pore (mPTP) assay. […] Image J software was used to measure individual cell fluorescence intensity of Calcein-AM (green). […]

Doxorubicin
Heart weight/body weight ([1]; FGF2(Lo) female mice): 0.44 ± 0.03 × 10^−2
Heart weight/body weight ([1]; FGF2(Lo) male mice): 0.43 ± 0.04 × 10^−2
Heart weight/body weight ([1]; FGF2(WT) female mice): 0.43 ± 0.02 × 10^−2
Heart weight/body weight ([1]; FGF2(WT) male mice): 0.44 ± 0.06 × 10^−2
mortality [2]: 40-70%
decrease in ejection fraction (EF), maximum [3]: 10%
effect on ejection fraction (EF) [3]: did not show any decrease
severity of FS decrease relative to FGF2(WT) group [3]: > 2 fold
relative intensity of calcein fluorescence post-Dox [4]: significantly higher
